Experimental data published in patent US8889379B2, “Biocatalytic production of glycosides” (Universiteit Gent, priority 2010, dated 2014).

Test system: cellobiose
Test: purified protein, by the assay type
Details: other: synthetic reaction, 50 mM MES buffer pH 6.5 at 45° C.

Q: What does the source list for “cellodextrin phosphorylase from Clostridium stercorarium (CsCDP) (Thermoclostridium stercorarium subsp. stercorarium DSM 8532)”?
A: Km: 447 ± 5 µM; kcat: 18.1 s⁻¹; kcat/Km: 40000 M⁻¹ s⁻¹
